These are literature values, as cited in patent publication US8748448B2, “Combination analgesic employing opioid agonist and neutral antagonist” (AIKO Biotechnology, priority 2007, dated 2014).

Some compounds may have been tested in ways that are not shown here.

The conditions of the data set: given orally unless otherwise indicated; cited from earlier work.

As to `CCC(=O)N(c1ccccc1)C1(COC)CCN(CCc2cccs2)CC1`, the “Half-life of active metabolites” value is 4.4 h.
